Values of other authors, collected in US9062321B2 (priority 2004, dated 2015).

Chains of the proteins cited; added tags and fusions are not shown. Residues count along the entry.
UniProt P22303, 32-614: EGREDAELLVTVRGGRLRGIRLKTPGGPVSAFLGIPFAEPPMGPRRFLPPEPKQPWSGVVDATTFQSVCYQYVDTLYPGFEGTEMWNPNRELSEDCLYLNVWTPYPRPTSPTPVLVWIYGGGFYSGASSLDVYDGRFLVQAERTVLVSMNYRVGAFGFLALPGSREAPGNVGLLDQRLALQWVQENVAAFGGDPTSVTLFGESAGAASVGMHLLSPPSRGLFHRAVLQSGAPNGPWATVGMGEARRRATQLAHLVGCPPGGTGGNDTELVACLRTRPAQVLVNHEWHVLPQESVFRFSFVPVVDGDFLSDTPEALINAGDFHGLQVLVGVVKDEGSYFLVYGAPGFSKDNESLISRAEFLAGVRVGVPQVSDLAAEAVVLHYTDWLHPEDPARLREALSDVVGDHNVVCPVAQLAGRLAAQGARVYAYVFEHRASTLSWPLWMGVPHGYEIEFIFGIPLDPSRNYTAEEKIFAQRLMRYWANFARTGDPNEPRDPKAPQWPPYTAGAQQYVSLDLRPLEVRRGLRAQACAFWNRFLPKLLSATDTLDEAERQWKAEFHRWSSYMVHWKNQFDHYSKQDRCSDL
UniProt P06276, 29-602: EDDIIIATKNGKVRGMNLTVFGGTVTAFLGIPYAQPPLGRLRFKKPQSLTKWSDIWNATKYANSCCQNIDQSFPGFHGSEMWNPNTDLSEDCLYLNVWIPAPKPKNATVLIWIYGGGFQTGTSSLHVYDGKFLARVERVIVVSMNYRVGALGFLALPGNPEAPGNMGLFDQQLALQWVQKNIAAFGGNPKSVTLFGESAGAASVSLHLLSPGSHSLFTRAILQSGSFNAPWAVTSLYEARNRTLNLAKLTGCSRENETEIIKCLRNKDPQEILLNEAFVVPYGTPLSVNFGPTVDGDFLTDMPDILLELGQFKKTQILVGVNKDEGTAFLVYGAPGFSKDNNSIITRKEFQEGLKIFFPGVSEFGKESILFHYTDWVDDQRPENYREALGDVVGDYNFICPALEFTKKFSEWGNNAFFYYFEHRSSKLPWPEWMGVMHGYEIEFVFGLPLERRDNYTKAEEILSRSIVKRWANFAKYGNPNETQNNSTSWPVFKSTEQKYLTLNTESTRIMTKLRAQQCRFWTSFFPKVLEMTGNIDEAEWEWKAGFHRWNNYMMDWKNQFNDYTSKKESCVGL

How the values were obtained:
AChE = AChE (Homo sapiens, UniProt P22303); details: cited from earlier work
BuChE = BuChE (Homo sapiens, UniProt P06276); details: read-out: Ki (measure of inhibitor efficiency) for BuChE; cited from earlier work

C=CC[N+](C)(C)c1ccc(CCC(=O)CCc2ccc([N+](C)(C)CC=C)cc2)cc1 [BW284c51, 1,5-bis(4-allyldimethylammoniumphenyl)pentan-3-one dibromide]
sensitivity of AChE to the inhibitor compared with BuChE (AChE): much more sensitive
pKi (BuChE): 4.85

pKi: −log10 of the molar value.
